Measured values from patent publication US12097200B2, “Combination of BI853520 with chemotherapeutic drugs” (INXMED (NANJING) CO., LTD., priority 2020, dated 2024).
“And” between values parts separate entries of the source, which are not always exact repeats. Equal values may be shown once.

System: KYSE-70 cells
Details: KYSE-70 xenograft; BI 853520 50 mg/kg qd; docetaxel 10 mg/kg q7d; combination of both

CC(=O)O[C@@]12CO[C@@H]1C[C@H](O)[C@@]1(C)C(=O)[C@H](O)C3=C(C)[C@@H](OC(=O)[C@H](O)[C@@H](NC(=O)OC(C)(C)C)c4ccccc4)C[C@@](O)([C@@H](OC(=O)c4ccccc4)[C@H]21)C3(C)C [Docetaxel, reference compound]
Tumor regression (animals with regression/animals in group): 4 of 7 and 4/7
